Tests used:
Homo sapiens [1] = species on record: Homo sapiens; experiment: Selectivity ratio of IC50 for CatG (unknown origin) to Ki for human neutrophil elastase
Homo sapiens [2] = species on record: Homo sapiens; experiment: Selectivity ratio of IC50 for chymotrypsin (unknown origin) to Ki for human neutrophil elastase
Homo sapiens [3] = species on record: Homo sapiens; experiment: Selectivity ratio of IC50 for trypsin (unknown origin) to Ki for human neutrophil elastase
[4] = Selectivity ratio of Ki for rat neutrophil elastase to Ki for human neutrophil elastase
[5] = Selectivity ratio of Ki for mouse neutrophil elastase to Ki for human neutrophil elastase
[6] = Selectivity ratio of IC50 for porcine pancreatic elastase to Ki for human neutrophil elastase

CC1=C(C#N)[C@@H](c2ccc(C#N)cc2S(C)(=O)=O)N(C)C(=O)N1c1cccc(C(F)(F)F)c1
Selectivity ratio (Homo sapiens [1]): > 375000 | Selectivity ratio (Homo sapiens [2]): > 375000 | Selectivity ratio (Homo sapiens [3]): > 375000 | Ratio Ki [4]: 100 | Ratio Ki [5]: 75 | Selectivity ratio [6]: > 375000
